Reference: PMC7870626, “Neurotoxicity and underlying cellular changes of 21 mitochondrial respiratory chain inhibitors” (Archives of Toxicology, 2021)

How the values were obtained:
SH-SY5Y cells = assay: Mitochondrial membrane potential (rhodamine 123), KE2 assay; type: cell-based, human; conditions: NeuriTox neurite EC25 relative to SH-SY5Y MMP EC25
Experimental: Cells were plated at a cell density of 29,500 cells/cm^2 and handled as described above for the neurite SH-SY5Y degeneration. On d6 of differentiation, 50% of the medium was replaced by differentiation medium containing 2 µM Rhodamine 123 (ThermoFisher). After 45 min of preloading at 37 °C with 5% CO2 in darkness, the Rhodamine 123 solution was completely removed and cells were carefully washed once with 200 µl DMEM:F12. Subsequently, 50 µl differentiation medium per well were added followed by the addition of 50 µl/well of test compounds in medium. […] Nuclei were evaluated in the DAPI channel (excitation 377 ± 50 nm, emission 447 ± 60 nm), whereas Rhodamine 123 fluorescence was detected in the FITC channel (excitation 475 ± 34 nm, emission 536 ± 40 nm). Analysis of the Hoechst 33,342 and Rhodamine 123 fluorescence was performed using the MetaXpress® Software (Molecular Devices) with the Transfluor HT plug-in and the parameters nuclei (for Hoechst-33342) and integrated granule intensity (for Rhodamine 123). Mitochondrial membrane potential (MMP) was quantified as the total fluorescence intensity of Rhodamine 123 in relation to the number of Hoechst-stained nuclei.

proteasome = assay: Proteasomal activity (KE3 assay) in LUHMES cells; type: cell-based, human; conditions: NeuriTox neurite EC25 relative to proteasomal activity EC25, LUHMES
Experimental: Activity of the proteasome was quantified as described in (Gutbier et al. [2018b]). Briefly, after exposure, culture medium was replaced by assay buffer containing a cell-permeable proteasomal substrate (MeOSuc-Gly-Leu-Phe-AMC, 25 µM (Bachem, Bubendorf, Switzerland) in HBSS). Its AMC-fluorescence (ex: 360 nm, em: 465 nm) increases with proteasomal activity and was monitored for 90 min. Background-corrected data were used for further analysis.

LUHMES cells = type: cell-based, human
Experimental: Cells were cultured and treated as described above for the NeuriTox assay. On d3, after 24 h treatment, culture medium was replaced by 33 µl/well 1 × Biospyder lysis buffer. After 15 min at room temperature, plates were sealed and frozen at -80 °C to complete lysis. Samples were analyzed at Bioclavis (Glasgow) using the TempO-Seq technique and the EU-ToxRisk v2.0 gene probe panel covering ca. 3000 genes (Yeakley et al. [2017]). All genes are listed in the supplementary excel file (containing also all gene regulations). Briefly, a 50 bp fragment of the target gene was amplified. The amplification step also introduced sample-specific barcodes. This allowed pooling of all samples and standard next-generation sequencing of the ensemble. Afterward, adapters were used to allocate the sequenced fragments to the correct samples. Finally, the alignment of all sequenced fragments (FASTQ files) for each sample to the collection of reference 50 bp oligonucleotides was performed for the quantification of reads per gene, also known as the read count values. In a pre-filtering step, samples with a total count < 0.2 million and genes with an average count < 1.5 were removed. The effect of normalization was checked by boxplots and distribution plots (not shown), and no outlier samples were identified.
To correct for both read depth and RNA composition, the DESeq2′s median of ratios normalization was applied. The analysis of differentially expressed genes (DEG) of each treatment against the control group was done by the Wald test implemented in DESeq2/R (Love et al. [2014]), including an FDR correction for p-adjusted ≤ 0.05. […] A curve was fit through these concentration–response data to obtain EC10DEG. For comparability, all DEG data were normalized to a positive control. […] The EC10DEG was calculated using an established online open access BMC calculator (BMCeasy) (Krebs et al. [2020]).

HepG2 cells = assay: HepG2-based respirometry, total cell respiration (earlier study); conditions: NeuriTox neurite EC25 relative to cell respiration EC25; respirometric data from HepG2-based assays ref van der Stel et al. 2020
[1] = tested on: MRC complex (cI, cII or cIII); assay: HepG2-based MRC complex assay in permeabilized cells (earlier study); type: cell-based; conditions: NeuriTox neurite EC25 relative to complex assay EC25 in permeabilized cells; respirometric data from HepG2-based assays ref van der Stel et al. 2020

## Cc1nn(C)c(Oc2ccccc2)c1C=NOCc1ccc(C(=O)OC(C)(C)C)cc1 [Fenpyroximate]
SH-SY5Y cells
  Ratios of EC25 KE4/KE2 MMP: 20
proteasome
  Ratios of EC25 KE4/KE3 proteasomal: 0.6
LUHMES cells
  log2FoldChange AARS: 0.27 log2
  log2FoldChange AASDHPPT: 0.38 log2
  log2FoldChange AATF: 0.12 log2
  log2FoldChange ABCA1: -1.83 log2
  log2FoldChange ABCA6: -1.18 log2
HepG2 cells
  Ratios of EC25 KE4/KE1 total respiration: 100
[1]
  Ratios of EC25 KE4/KE1 complex assay: 10000
